According to patent publication US20150005230A1, “CYCLODEXTRIN-BASED POLYMERS FOR THERAPEUTIC DELIVERY” (priority 2012, published 2015):

System: acetyl cholinesterase
Details: in the presence of acetyl cholinesterase

Substance | CPT release rate compared with PBS
Poly(CDDCys-PA-PEG)-Gly-CPT [HG6] | on the same order of magnitude as in PBS
Poly(CDDCys-PA-PEG)-GlyGlyGly-CPT [HGGG6] | on the same order of magnitude as in PBS
